Measurements taken from ChEMBL document CHEMBL1129585, “Synthesis and biological activity of conformationally restricted analogs of milnacipran: (1S,2R)-1-phenyl-2-[(S)-1-aminopropyl]-N,N-diethylcyclopropanecarboxami de, an efficient noncompetitive N-methyl-D-aspartic acid receptor antagonist” (J Med Chem, 1996).

Organism: Rattus norvegicus
Test: Ratio of 5 HT inhibition to NMDA receptor binding

## CCN(CC)C(=O)[C@@]1(c2ccccc2)C[C@H]1CN [LEVOMILNACIPRAN]
  Selectivity index: 0.0013
